Most of the hits are listed elsewhere, so they are rarer here than in the full data. Results filed as inconclusive are left out. Activity calls are given as the source filed them. The call rests on the fitted dose curve; in most records, active means well fitted curve in the direction sought with a large enough effect; inconclusive means small, poorly fitted or top-dose-only effect, or effect the other way; inactive means no such curve, though single readings can be large or run the other way.
On the % scale 0 is the no-effect control and ±100 the full control effect.

By UniProt entry, the sequences of proteins in these tests, tags left out.
UniProt P11712, whole entry, looked up: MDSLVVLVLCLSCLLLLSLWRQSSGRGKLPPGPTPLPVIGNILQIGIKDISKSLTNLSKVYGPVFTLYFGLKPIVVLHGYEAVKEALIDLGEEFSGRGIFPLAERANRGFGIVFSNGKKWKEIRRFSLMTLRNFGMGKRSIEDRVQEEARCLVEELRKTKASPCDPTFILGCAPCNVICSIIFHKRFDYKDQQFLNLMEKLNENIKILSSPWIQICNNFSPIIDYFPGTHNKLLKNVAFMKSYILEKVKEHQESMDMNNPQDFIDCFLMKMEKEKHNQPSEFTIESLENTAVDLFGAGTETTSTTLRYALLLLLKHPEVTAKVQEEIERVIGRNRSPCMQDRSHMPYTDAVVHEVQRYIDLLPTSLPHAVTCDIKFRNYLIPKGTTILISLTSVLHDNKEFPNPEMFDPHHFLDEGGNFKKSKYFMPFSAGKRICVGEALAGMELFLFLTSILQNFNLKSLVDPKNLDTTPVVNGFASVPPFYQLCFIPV

In the experiment the target is Cytochrome P450 2C9 (Homo sapiens) (UniProt P11712). As to the kind of experiment: Cytochrome panel assay with activity outcomes. The settings on record: recombinant CYP, pro-luciferin dealkylation, luminescence, p450-cyp2c9; at 57.1 µM (top of the series) unless noted.
For `CN(CCC(=O)O)C1=Nc2ccc(Cl)cc2C(c2ccccc2)=[N+]([O-])C1`, the activity, negative = inhibition was inactive: 3.82% [at 11.4 µM]. Next, `CN1CCCC2(CCN(C(=O)c3csnn3)CC2)C1`: inactive: 3.69%.

These data come from PubChem BioAssay AID1851 (National Center for Advancing Translational Sciences (NCATS), 2009).
